Measured values as given in patent US20250074908A1, “SALT OF ROCK INHIBITOR, CRYSTAL FORM OF SALT, COMPOSITION, AND PHARMACEUTICAL USE” (WUHAN CREATERNA SCIENCE AND TECHNOLOGY CO., LTD., priority 2022, published 2025).

Experiments:
[1] = Solubility in biological media and purified water at 37° C. (tartrate, ethanesulfonate, 2-hydroxyethanesulfonate, sulfate); type: physicochemical; conditions: for solubility in SGF: level over the 24 h test; for solubility in SGF / XRPD spectra in the three biological media: SGF; for solubility in FaSSIF within 24 h / XRPD spectra in the three biological media: FaSSIF; for XRPD spectra in the three biological media: after solubility test; for pH of solutions in the solubility test: three biological media
Experimental: (§1) A) The HPLC method used for the solubility test was as follows:
4 parallel samples of each of the crystal form I of tartrate, the crystal form I of ethanesulfonate, and the crystal form I of 2-hydroxyethanesulfonate (with about 5 mg per sample) were weighed and each placed into a 10 mL centrifuge tube, and then 5 mL of the corresponding biological medium solution was added to each tube; the tubes were capped, and the samples were suspended homogeneously. 10 parallel samples of the crystal form I of sulfate (with 1 mg per sample) were weighed and placed in centrifuge tubes, then 2 mL of the corresponding biological medium solution was added to each tube, and the samples were suspended homogeneously. The centrifuge tubes were shaken on a constant temperature incubator shaker (at a temperature of 37° C., with a shaking frequency of 100 times/min).

[2] = Solubility in biologically relevant media at 37° C. (free base crystal form I, crystal form III of maleate); type: physicochemical
Experimental: as §1
15 mg of each sample was weighed and dispersed in 3.0 mL of biologically relevant medium. The dispersion was shaken on a shaker at a rotation speed of 800 rpm at 37° C. 1 mL of the dispersion was taken at 0.5 h, 2 h, and 24 h, and filtered. The filtrate was tested for solubility by Agilent HPLC 1260 series and for pH value by a pH meter. The filter cake was characterized for the crystal form by XRPD.

Structure (SMILES)	Solubility 1 h ([1]; FaSSIF (pH 6.5), 37° C.) [µg/mL]	Solubility 2 h ([1]; FaSSIF (pH 6.5), 37° C.) [µg/mL]	Solubility 4 h ([1]; FaSSIF (pH 6.5), 37° C.) [µg/mL]	Solubility 24 h ([1]; FaSSIF (pH 6.5), 37° C.) [µg/mL]	solubility in FaSSIF within 24 h ([1]; 37° C.) [µg/mL]	Solubility 1 h ([1]; FeSSIF (pH 5.0), 37° C.) [µg/mL]	Solubility 2 h ([1]; FeSSIF (pH 5.0), 37° C.) [µg/mL]	Solubility 4 h ([1]; FeSSIF (pH 5.0), 37° C.) [µg/mL]	Solubility 24 h ([1]; FeSSIF (pH 5.0), 37° C.) [µg/mL]	Solubility 1 h ([1]; SGF (pH 1.2), 37° C.) [µg/mL]	Solubility 2 h ([1]; SGF (pH 1.2), 37° C.) [µg/mL]	Solubility 4 h ([1]; SGF (pH 1.2), 37° C.) [µg/mL]	Solubility 24 h ([1]; SGF (pH 1.2), 37° C.) [µg/mL]	solubility in SGF ([1]; 37° C.)	XRPD spectra in the three biological media ([1]; FeSSIF)	XRPD (24 h) ([1]; after 24 h in Purified water)	pH of solutions in the solubility test [1]	further results
Cn1c(C(=O)N2CC(F)(F)C2)cc2c1CN(c1ncc(F)c(Nc3ccc(-c4cn[nH]c4)cc3)n1)CC2.O=S(=O)(O)CCO	4	5	3	3	3 to 5	85	76	62	28	55	56	56	57	around 56 μg/mL	all changed, with a certain degree of decrease in crystallinity observed	Remained unchanged	did not change significantly	
CCS(=O)(=O)O.Cn1c(C(=O)N2CC(F)(F)C2)cc2c1CN(c1ncc(F)c(Nc3ccc(-c4cn[nH]c4)cc3)n1)CC2 [Crystal form I of ethanesulfonate]	3	3	3	2	2 to 3	85	76	61	12	101	101	97	72		all changed, with a certain degree of decrease in crystallinity observed	Remained unchanged	did not change significantly	XRPD (24 h) ([1]; after 24 h in FeSSIF (pH 5.0)): became almost amorphous
Cn1c(C(=O)N2CC(F)(F)C2)cc2c1CN(c1ncc(F)c(Nc3ccc(-c4cn[nH]c4)cc3)n1)CC2.O=C(O)C(O)C(O)C(=O)O [Crystal form I of tartrate]	2	1	2	1	1 to 2	26	21	19	16	46	50	50	51	around 50 μg/mL	all changed, with a certain degree of decrease in crystallinity observed	Remained unchanged	did not change significantly	solubility in FeSSIF over a period of 0-24 h ([1]; FeSSIF, 37° C., 0-24 h): 16 to 26 µg/mL
Cn1c(C(=O)N2CC(F)(F)C2)cc2c1CN(c1ncc(F)c(Nc3ccc(-c4cn[nH]c4)cc3)n1)CC2.O=C(O)/C=C\C(=O)O [Crystal form III of maleate]																		Solubility 2 h ([2]; FaSSIF, 2 h): 0.16 µg/mL; Solubility 0.5 h ([2]; SGF, 0.5 h): 24.00 µg/mL
Cn1c(C(=O)N2CC(F)(F)C2)cc2c1CN(c1ncc(F)c(Nc3ccc(-c4cn[nH]c4)cc3)n1)CC2 [Free base crystal form I]																		solubility at 2 h ([2]; thermodynamic from solid, FaSSIF, 2 h): 0.76 µg/mL (≈ 1.49 µM); solubility at 0.5 h ([2]; thermodynamic from solid, FeSSIF, 0.5 h): 0.4 µg/mL (≈ 0.787 µM)

≈ marks a conversion by molar mass, not a printed value.
